Earlier results as cited in US9386796B2, “Method for infusing calcium phosphate in water, juices and water beverages” (priority 2003, dated 2016).

Settings: after ingestion of tablets

## calcium carbonate
  absorption: about 28%
